Experimental findings from paper doi:10.1101/2020.11.25.399204 are described below.

The target in this assay is protein kinase A (PKA) (mouse) (UniProt P05132).

In turn, “full length mouse PKIα (from UniProt P63248 1-76) (natural protein)” returned an IC50 of inhibition of PKA kinase activity (dose-response, Z'-LYTE, cell-free) of 0.11 nM.
